# Reference: US20110009343A1, “MODULATORS OF AMYLOID AGGREGATION” (Praecis Pharmaceuticals, Inc., priority 1995, published 2011)
# Sequences of proteins named here, by UniProt entry; tags and fusion partners are left off. Residues count along the entry.
# UniProt P05067, 672-711: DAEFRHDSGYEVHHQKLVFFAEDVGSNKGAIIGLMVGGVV
# Columns and labels:
# [1] = target: T1, Aβ1-40 (Homo sapiens, UniProt P05067); assay: Nucleation assay (turbidity, A405 nm); type: biochemical; conditions: Table II; 100 mole % vs 50 μM Aβ1-40;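 note: synthetic Aβ monomer polymerization followed by turbidity in 96-well plates with continuous shaking, read every 15 minutes over 5 hours, compared against wells lacking test compound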
# T1 construct: (β-AP1-40) was obtained commercially from Bachem (Torrance, Calif.); purchased Bachem (Torrance, Calif.)
# [2] = target: T2, Aβ(1-40) peptide (Homo sapiens, UniProt P05067); assay: Seeded static assay (SSA), Thioflavin-T fluorescence; type: biochemical; conditions: inhibitor tested at 100 μM and 10 μM
# T2 construct: (β-AP1-40) was obtained commercially from Bachem (Torrance, Calif.); purchased Bachem (Torrance, Calif.)
smiles,measurement,setting,value
CC(C)C[C@H](NC(=O)[C@H](CCCCN)NC(=O)c1ccc2c(c1)C(=O)OC21c2ccc(O)cc2Oc2cc(O)ccc21)C(=O)N[C@H](C(=O)N[C@@H](Cc1ccccc1)C(=O)N[C@@H](Cc1ccccc1)C(=O)N[C@@H](C)C(=O)N[C@@H](CCC(=O)O)C(=O)N[C@@H](CC(=O)O)C(=O)N[C@H](C(=O)NCC(=O)N[C@@H](CO)C(=O)N[C@@H](CC(N)=O)C(=O)N[C@@H](CCCCN)C(=O)NCC(=O)N[C@@H](C)C(=O)O)C(C)C)C(C)C [PPI-278],Fold Increase in Lag Time,[1],1.6 fold
CC[C@H](C)[C@H](NC(=O)[C@H](C)NC(=O)CNC(=O)[C@H](CCCCN)NC(=O)[C@H](CC(N)=O)NC(=O)[C@H](CO)NC(=O)CNC(=O)[C@@H](NC(=O)[C@H](CC(=O)O)NC(=O)[C@H](CCC(=O)O)NC(=O)[C@H](C)NC(=O)c1ccc2c(c1)C(=O)OC21c2ccc(O)cc2Oc2cc(O)ccc21)C(C)C)C(=O)N[C@H](C(=O)NCC(=O)N[C@@H](CC(C)C)C(=O)N[C@@H](CCSC)C(=O)O)[C@@H](C)CC [PPI-283],Fold Increase in Lag Time,[1],1.2 fold
CC[C@H](C)[C@H](NC(=O)[C@H](C)NC(=O)CNC(=O)[C@H](CCCCN)NC(=O)[C@H](CC(N)=O)NC(=O)[C@H](CO)NC(=O)CNC(=O)[C@@H](NC(=O)[C@H](CC(=O)O)NC(=O)[C@H](CCC(=O)O)NC(=O)[C@H](C)NC(=O)[C@H](Cc1ccccc1)NC(=O)[C@H](Cc1ccccc1)NC(=O)[C@@H](NC(=O)[C@H](CC(C)C)NC(=O)[C@H](CCCCN)NC(=O)[C@H](CCC(N)=O)NC(=O)[C@H](CCC(N)=O)NC(=O)[C@H](Cc1c[nH]cn1)NC(=O)[C@H](Cc1c[nH]cn1)NC(=O)[C@H](Cc1c[nH]cn1)NC(=O)[C@H](Cc1c[nH]cn1)NC(=O)[C@@H](NC(=O)[C@@H](NC(=O)[C@H](CCC(=O)O)NC(=O)[C@@H](N)CCC(=O)O)C(C)C)C(C)C)C(C)C)C(C)C)C(=O)N[C@H](C(=O)NCC(=O)N[C@@H](CC(C)C)C(=O)N[C@@H](CCSC)C(=O)N[C@H](C(=O)NCC(=O)NCC(=O)N[C@H](C(=O)N[C@H](C(=O)O)C(C)C)C(C)C)C(C)C)[C@@H](C)CC [PPI-220],Effect in Seeded Static Assay,[2],++ (A strong inhibitor of aggregation. The rate of aggregation in the presence of the inhibitor was decreased compared to the control by at least 30-50%)
CC(C)C[C@H](NC(=O)[C@H](CCCCN)NC(=O)[C@H](CCC(N)=O)NC(=O)[C@H](Cc1c[nH]cn1)NC(=O)[C@H](Cc1c[nH]cn1)NC(=O)[C@@H](NC(=O)[C@H](CCC(=O)O)NC(=O)[C@H](Cc1ccc(O)cc1)NC(=O)CNC(=O)[C@H](CO)NC(=O)[C@H](CC(=O)O)NC(=O)[C@H](Cc1c[nH]cn1)NC(=O)c1ccc2c(c1)C(=O)OC21c2ccc(O)cc2Oc2cc(O)ccc21)C(C)C)C(=O)N[C@H](C(=O)N[C@@H](Cc1ccccc1)C(=O)N[C@@H](Cc1ccccc1)C(=O)O)C(C)C [PPI-268],Fold Increase in Lag Time,[1],1.9 fold
